Source: PMC4432619

Biological target: FMNL2N(S171DD) (residues 1–379) (human) (UniProt Q96PY5)
Test: ITC; GppNHp-loaded GTPase at 500 μM injected from the syringe into 50 μM FMNL in the cell; 20 mM Tris/HCl pH 8, 150 mM NaCl, 5 mM MgCl2, 1 mM DTE, 298 K; MicroCal iTC200

Substance | Kd | dH | stoichiometry N
Rac1(A95E,E131K,K132N) (1–177) (from UniProt P63000 1-177) (domain or fragment) | 0.9 µM | -9.83 kJ/mol | 1.01
Rac1(E131K,K132N) (1–177) (from UniProt P63000 1-177) (domain or fragment) | 10.7 µM | -2.64 kJ/mol | 1.07
